Test results reported in PubChem BioAssay AID434987 (Southern Research Specialized Biocontainment Screening …, 2010).
Activity calls are given as the source filed them. How the calls were made is not given here.

Tested on: M. tuberculosis H37Rv growth inhibition with meropenem
Assay: dose response, H37Rv, with and without meropenem (AID 434987);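 further: growth over 7 days at 37 °C before Alamar Blue read on day 9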

With `CCCCCCCCCCCCCCCC[N+](C)(C)CCN(Cc1ccc(OC)cc1)c1ncccn1` the IC50 was inactive: 2.83 µM, the IC50 (M. tuberculosis H37Rv growth inhibition, measured here: IC50 without meropenem) was 2.86 µM and the IC90 (M. tuberculosis H37Rv growth inhibition, measured here: IC90 without meropenem) was 3.25 µM. For the same compound, the IC90 (measured here: IC90 with meropenem) was 3.09 µM.
